Laboratory results published in US20220291237A1 (priority 2021, published 2022).

Assays:
Design in all cases: species or system human
[1] = test system: CXCL1
[2] = test system: MIG
[3] = test system: TNFSF10

In the case of Silicon dioxide, the EFFECT [1] is reported as “Beneficial”, the EFFECT [2] is reported as “Detrimental” and the EFFECT [3] is reported as “Detrimental”.
